Results taken from patent publication US20150065524A1, “KINASE INHIBITOR POLYMORPHS” (Intellikine LLC, priority 2011, published 2015).

Assay: Stability testing: storage at 40° C./75% RH or 25° C./97% RH, reanalysis by XRPD
Type: physicochemical
Conditions: salts of Formula I, salt screening
Method: A sample of J00439 was stored at 40° C./75% RH. […] Thus this solid form (which will be referred to as Form A) was stable to accelerated stability testing conditions. Note that some variations in XRPD peak intensity were observed over time.
Samples of entries 38, 39, 41, and 42 were stored at 40° C./75% RH. […]

- Stability at 40° C./75% RH: Stable for 7 days
Substance: Phosphoric acid
